Measured values from publication PMC4853476 (Nature Communications, 2016).

By UniProt entry, the sequences of proteins in these tests, tags left out. Chains listed by the source or under a name are the forms on record and can include a tag or linker. Residues count along the entry.
UniProt O75530, 77-441 partner limits assumed: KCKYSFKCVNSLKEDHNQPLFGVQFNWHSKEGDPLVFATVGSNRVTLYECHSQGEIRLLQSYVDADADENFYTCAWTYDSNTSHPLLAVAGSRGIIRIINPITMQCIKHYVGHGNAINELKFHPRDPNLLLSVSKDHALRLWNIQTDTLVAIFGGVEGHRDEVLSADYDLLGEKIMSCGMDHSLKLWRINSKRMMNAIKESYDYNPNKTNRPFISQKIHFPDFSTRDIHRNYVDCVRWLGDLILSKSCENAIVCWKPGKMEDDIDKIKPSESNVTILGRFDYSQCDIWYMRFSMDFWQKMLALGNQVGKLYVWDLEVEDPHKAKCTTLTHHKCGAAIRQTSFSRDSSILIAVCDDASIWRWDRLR
UniProt Q15022, 535-685 partner limits assumed: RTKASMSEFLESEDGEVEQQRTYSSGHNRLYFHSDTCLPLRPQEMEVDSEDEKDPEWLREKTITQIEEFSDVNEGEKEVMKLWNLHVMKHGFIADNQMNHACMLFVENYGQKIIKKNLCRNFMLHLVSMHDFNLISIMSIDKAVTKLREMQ
UniProt Q15910, 421-746 limits assumed, stated change not applied: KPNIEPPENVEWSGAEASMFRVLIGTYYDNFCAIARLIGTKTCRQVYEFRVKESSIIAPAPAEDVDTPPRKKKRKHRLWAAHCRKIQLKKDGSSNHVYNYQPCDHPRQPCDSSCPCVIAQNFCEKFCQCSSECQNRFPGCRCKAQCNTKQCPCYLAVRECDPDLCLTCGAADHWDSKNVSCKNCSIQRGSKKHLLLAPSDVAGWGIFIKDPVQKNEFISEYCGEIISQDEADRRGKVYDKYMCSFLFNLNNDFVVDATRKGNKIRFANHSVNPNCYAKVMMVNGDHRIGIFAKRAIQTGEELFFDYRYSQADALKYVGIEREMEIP
UniProt Q15910, with tags, fused parts or gaps DEL183-210 limits assumed: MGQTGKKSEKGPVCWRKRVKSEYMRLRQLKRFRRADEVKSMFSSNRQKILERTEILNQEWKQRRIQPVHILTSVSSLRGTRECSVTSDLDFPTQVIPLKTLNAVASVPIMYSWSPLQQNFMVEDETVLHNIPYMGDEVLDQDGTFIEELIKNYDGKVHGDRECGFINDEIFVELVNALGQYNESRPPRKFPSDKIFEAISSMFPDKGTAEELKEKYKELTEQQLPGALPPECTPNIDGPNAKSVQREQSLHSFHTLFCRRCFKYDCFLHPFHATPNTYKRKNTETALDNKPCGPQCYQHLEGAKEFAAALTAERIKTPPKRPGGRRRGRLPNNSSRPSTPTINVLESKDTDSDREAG

Molecular target: human PRC2 complex (Homo sapiens, UniProt O75530+Q15022+Q15910, DEL183-210)
Experiment: Fluorescence anisotropy displacement titrations with unlabelled peptides
Assay type: binding
Parameters: containing EZH2 (residues 421–746) and SUZ12 (residues 535–685), each with an N-terminal GST tag; contained EED (residues 77–441) and EZH2 (residues 1–385); GST (PreScission 3C site) (N, cleaved yes); His-tag (thrombin site) (N, cleaved yes); made in house; host or cells: Escherichia coli BL21 (λDE3)
Conditions: presence of SAM; versus H3K27M

fold weaker binding when Arg26 is substituted with Ala: 22 fold
Compound: CSCC[C@H](NC(=O)[C@H](C)NC(=O)[C@H](C)NC(=O)[C@H](C)NC(=O)[C@H](CCCCN)NC(=O)[C@@H](N)[C@@H](C)O)C(=O)N[C@@H](CO)C(=O)N[C@@H](C)C(=O)N1CCC[C@H]1C(=O)N[C@@H](C)C(=O)N[C@H](C(=O)NCC(=O)NCC(=O)N[C@H](C(=O)N[C@@H](CCCCN)C(=O)N[C@@H](CCCCN)C(=O)N1CCC[C@H]1C(=O)N[C@@H](Cc1c[nH]cn1)C(=O)N[C@@H](CCCNC(=N)N)C(=O)N[C@@H](Cc1ccc(O)cc1)C(=O)N[C@@H](CCCNC(=N)N)C(=O)O)C(C)C)[C@@H](C)O [H3R26AK27M]
